The values that follow come from article PMC12366246.

The target of assay [1] is T1, peg4‐KLVFF peptide conjugate covalently bound to graphene oxide (GO@peg4‐KLVFF).
T1 sequence: KLVFF
The experiment in a line: electrical (resistive) biosensor, I–V curves; peg4‐KLVFF held on graphene oxide between Pt/Ti electrodes; 1 µL of freshly prepared analyte peptide at 9 µM in water/HFIP 4:1, pH 5.5, left 5 min, washed in deionized water, read on dried samples; ΔR/R0 at 2 V.

For assay [2] the target is unchanged. The experiment in a line: electrical (resistive) biosensor, I–V curves; as a1, but 4‐months‐aged Aβ42 centrifuged (10 000 rpm, 3 min, 25 °C) through a 5 kDa cut‐off septum, solution enriched with monomers; triplicate devices, mean ΔR/R0.
Assay [3] has the same target. The experiment in a line: electrical (resistive) biosensor, I–V curves; as a1, but Aβ42 solution aged 40 days at 4 °C to induce aggregation, initial concentration 9 µM.

As for “Aβ42 native peptide (from UniProt P05067 672-713) (peptide; peg4 spacer (15‐amino‐7,7,10,13‐tetraoxapentadecanoic acid) at the N‐terminus; covalently conjugated with graphene oxide by EDC/NHS (carboxyl group of GO, amino group of the peptide); other documents disagree on this pair)”, the ΔR/R0 in assay [1] worked out at 0.5; in assay [2] it was 0.6; in assay [3], 0.4.
